Test results as given in patent publication US4562191A (priority 1983, dated 1985).

Tested on: Female CD-1 albino mice
Experiment: Hot plate test (central analgesia) in the mouse
Conditions: for Reaction time, basic: before treatment

For `CCC(=O)O[C@](Cc1ccccc1)(c1ccccc1)[C@H](C)CN(C)C` [D-propoxyphene], the “Reaction time after 30 min” value (10 mg/kg s.c.) was 14.4 ± 2.5 s, the “Reaction time after 30 min” value (20 mg/kg s.c., 15 animals) was 13.8 ± 1.2 s and the “Reaction time, basic” value (group 10 mg/kg s.c.) was 7.5 ± 0.7 s. For the same compound, the “Reaction time, basic” value (group 20 mg/kg s.c., 15 animals) was 6.9 ± 0.7 s.
